# Experimental data published in PubChem BioAssay AID651711 (Broad Institute, 2012).
# Sequences of proteins named here, by UniProt entry; tags and fusion partners are left off.
# UniProt Q15084, whole entry: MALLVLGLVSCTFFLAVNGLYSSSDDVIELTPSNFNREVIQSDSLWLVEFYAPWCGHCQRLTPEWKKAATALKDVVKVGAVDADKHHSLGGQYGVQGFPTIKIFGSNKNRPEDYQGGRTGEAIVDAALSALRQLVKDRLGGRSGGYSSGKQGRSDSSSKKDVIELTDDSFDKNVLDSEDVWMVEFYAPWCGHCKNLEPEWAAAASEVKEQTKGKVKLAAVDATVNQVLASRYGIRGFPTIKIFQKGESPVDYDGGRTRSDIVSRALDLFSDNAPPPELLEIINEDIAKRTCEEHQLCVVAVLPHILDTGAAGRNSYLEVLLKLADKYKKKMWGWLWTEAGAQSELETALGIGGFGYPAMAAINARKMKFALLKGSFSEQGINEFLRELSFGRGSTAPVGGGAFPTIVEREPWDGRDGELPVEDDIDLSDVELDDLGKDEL
# The entries are a selection whose mix differs from that of the whole data set. Active and inactive are the calls of the source.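 Rule for the calls: active = mean replicate inhibition above about 25%, with every replicate also reaching it (limit read from the data, passing the limit was not always enough); inconclusive = only one of those two criteria met; inactive = neither criterion met.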
# Target: Protein disulfide-isomerase A6 (Homo sapiens) (UniProt Q15084)
# Assay: inhibitors of ERp5-driven insulin aggregation, primary screen, biochemical, turbidity, absorbance 650 nm, single point (AID 651711)
# Conditions: 90 min, at 9.99 µM, stronger effect = higher value
row,Structure (SMILES),inhibition
1,O=C(NCC1(N2CCCCC2)CCCCC1)c1cccs1,inactive: 6.99%
2,CCCCn1nnnc1C(CC)N1CCC(n2c(=O)[nH]c3ccccc32)CC1 (stereo not drawn),inactive: -1.28%
3,CSc1ccccc1C(=O)NCC1(N2CCCCC2)CCCCC1,inactive: -1.83%
4,Cc1cccc(NC2(C#N)CCN(Cc3ccccc3)CC2)c1,inactive: -4.67%
5,O=c1[nH]c2ccccc2n1C1CCN(C(c2ccccc2OC(F)(F)F)c2nnnn2C2CCCCC2)CC1 (stereo not drawn),inactive: 7.05%
6,O=C(NCC1(N2CCCCC2)CCCCC1)c1ccc(Cl)nc1,inactive: 0.702%
7,Cc1cc(C)cc(N(C(=O)c2ccccc2)C2CCN(C(=O)OC(C)(C)C)CC2)c1,inactive: -2.36%
8,O=C(OC1CN2CCC1CC2)C1c2ccccc2Oc2ccccc21 (stereo not drawn),inactive: 3.93%
9,O=c1[nH]c2ccccc2n1C1CCN(C(c2cc3ccccc3o2)c2nnnn2C2CCCCC2)CC1 (stereo not drawn),inactive: 1.24%
10,N#CC1(Nc2ccccc2)CCN(Cc2ccccc2)CC1,inactive: -2.81%
11,O=C(NCC1(N2CCCCC2)CCCCC1)c1ccc(Cl)s1,inactive: 4.87%
12,COc1ccc(Cl)cc1C(=O)NCC1(N2CCOCC2)CCCCC1,inactive: -0.113%
13,CCOC(=O)N1CCC(Nc2ccc(OC)cc2)CC1,inactive: 0.195%
14,CCCCn1nnnc1C(c1ccc(OC)cc1)N1CCC(n2c(=O)[nH]c3ccccc32)CC1 (stereo not drawn),inactive: -3.64%
15,CC(C)c1ccc(NC2CCN(C(=O)OC(C)(C)C)CC2)cc1,inactive: 2.68%
16,COc1ccc(CN(CCCl)CCCl)cc1Cl,inactive: 2.08%
17,CN(C)c1cccc(C(=O)NCC2(N3CCCCC3)CCCCC2)c1,inactive: 2.13%
18,COc1cc(OC)c(C(=O)NCC2(N(C)C)CCCCC2)cc1OC,inactive: -1.02%
19,O=C(NCC1(N2CCOCC2)CCCCC1)c1cc(F)c(F)cc1Cl,inactive: -18.3%

row,Structure (SMILES),inhibition
1,CCC(c1nnnn1C(C)(C)C)N1CCC(n2c(=O)[nH]c3ccccc32)CC1 (stereo not drawn),inactive: -0.864%
2,CCCCn1nnnc1C(c1ccnc2ccccc12)N1CCC(n2c(=O)[nH]c3ccccc32)CC1 (stereo not drawn),inactive: 0.05%
3,O=C(NCC1(N2CCCCC2)CCCCC1)c1cncc(Br)c1,inactive: 0.749%
4,CN1CCC(Nc2cccc(F)c2)CC1,inactive: -0.285%
5,COc1ccc(C(c2nnnn2C2CCCC2)N2CCC(n3c(=O)[nH]c4ccccc43)CC2)cc1 (stereo not drawn),inactive: -1.84%
6,Cc1ccc(C(=O)NCC2(N(C)C)CCCCC2)o1,inactive: 0.527%
7,CCCOc1ccc(C(=O)NCC2(N(C)C)CCCCC2)cc1OC,inactive: 6.81%
8,CC(C)(C)n1nnnc1C(c1ccccc1OC(F)(F)F)N1CCC(n2c(=O)[nH]c3ccccc32)CC1 (stereo not drawn),inactive: 0.466%
9,O=C(NCC1(N2CCCCC2)CCCCC1)c1ccc(OC(F)F)cc1,inactive: -1.54%
10,CCN1CCC(Nc2ccc(Cl)cc2)CC1,inactive: -0.975%
11,O=c1[nH]c2ccccc2n1C1CCN(C(c2ccccc2OC(F)(F)F)c2nnnn2C2CCCC2)CC1 (stereo not drawn),inactive: -2.62%
12,CSc1ccc(C(=O)NCC2(N3CCOCC3)CCCCC2)cc1,inactive: -2.35%
13,O=C(NCC1(N2CCCCC2)CCCCC1)c1cccc([N+](=O)[O-])c1,inactive: 3.77%
14,O=C(NCC1(N2CCCCC2)CCCCC1)c1cccc(C(F)(F)F)c1,inactive: -2.87%
15,COc1cc(C(=O)NCC2(N3CCCCC3)CCCCC2)ccc1OC(F)F,inactive: -10.3%
16,CCCCn1nnnc1C(c1cccc2ccccc12)N1CCC(n2c(=O)[nH]c3ccccc32)CC1 (stereo not drawn),inactive: -0.423%
17,CN1CCN(CCOC(=O)C(O)(c2ccccc2)c2ccccc2)CC1,inactive: 14.2%
18,CC(C)c1ccc(C(=O)NCC2(N3CCOCC3)CCCCC2)cc1,inactive: -2.78%
19,COc1ccc(NC2CCN(C(=O)OC(C)(C)C)CC2)cc1,inactive: -0.708%
